Legend:
Type in all cases: biochemical
[1] = biological target: JMJD2C (Homo sapiens (Human), UniProt Q9H3R0); experiment: JMJD2C in vitro enzyme inhibition assay (TR-FRET)
[2] = biological target: Jarid1A (Homo sapiens (Human), UniProt P29375); experiment: Jarid1A in vitro enzyme inhibition assay (TR-FRET)
[3] = biological target: Jarid1B (Homo sapiens (Human), UniProt Q9UGL1); experiment: Jarid1B in vitro enzyme inhibition assay (TR-FRET)

By UniProt entry, the sequences of proteins in these tests, tags left out. Residues count along the entry.
UniProt Q9H3R0, 2-372: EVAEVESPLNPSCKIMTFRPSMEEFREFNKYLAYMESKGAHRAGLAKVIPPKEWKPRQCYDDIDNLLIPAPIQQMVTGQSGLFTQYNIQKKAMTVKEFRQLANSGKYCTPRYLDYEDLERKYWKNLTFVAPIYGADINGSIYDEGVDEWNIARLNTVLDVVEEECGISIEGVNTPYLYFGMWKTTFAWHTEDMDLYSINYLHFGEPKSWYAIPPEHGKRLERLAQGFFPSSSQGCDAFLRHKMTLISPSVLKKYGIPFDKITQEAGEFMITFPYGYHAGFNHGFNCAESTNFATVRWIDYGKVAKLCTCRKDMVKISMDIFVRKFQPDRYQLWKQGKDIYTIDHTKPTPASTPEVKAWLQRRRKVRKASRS
UniProt P29375, 1-1090: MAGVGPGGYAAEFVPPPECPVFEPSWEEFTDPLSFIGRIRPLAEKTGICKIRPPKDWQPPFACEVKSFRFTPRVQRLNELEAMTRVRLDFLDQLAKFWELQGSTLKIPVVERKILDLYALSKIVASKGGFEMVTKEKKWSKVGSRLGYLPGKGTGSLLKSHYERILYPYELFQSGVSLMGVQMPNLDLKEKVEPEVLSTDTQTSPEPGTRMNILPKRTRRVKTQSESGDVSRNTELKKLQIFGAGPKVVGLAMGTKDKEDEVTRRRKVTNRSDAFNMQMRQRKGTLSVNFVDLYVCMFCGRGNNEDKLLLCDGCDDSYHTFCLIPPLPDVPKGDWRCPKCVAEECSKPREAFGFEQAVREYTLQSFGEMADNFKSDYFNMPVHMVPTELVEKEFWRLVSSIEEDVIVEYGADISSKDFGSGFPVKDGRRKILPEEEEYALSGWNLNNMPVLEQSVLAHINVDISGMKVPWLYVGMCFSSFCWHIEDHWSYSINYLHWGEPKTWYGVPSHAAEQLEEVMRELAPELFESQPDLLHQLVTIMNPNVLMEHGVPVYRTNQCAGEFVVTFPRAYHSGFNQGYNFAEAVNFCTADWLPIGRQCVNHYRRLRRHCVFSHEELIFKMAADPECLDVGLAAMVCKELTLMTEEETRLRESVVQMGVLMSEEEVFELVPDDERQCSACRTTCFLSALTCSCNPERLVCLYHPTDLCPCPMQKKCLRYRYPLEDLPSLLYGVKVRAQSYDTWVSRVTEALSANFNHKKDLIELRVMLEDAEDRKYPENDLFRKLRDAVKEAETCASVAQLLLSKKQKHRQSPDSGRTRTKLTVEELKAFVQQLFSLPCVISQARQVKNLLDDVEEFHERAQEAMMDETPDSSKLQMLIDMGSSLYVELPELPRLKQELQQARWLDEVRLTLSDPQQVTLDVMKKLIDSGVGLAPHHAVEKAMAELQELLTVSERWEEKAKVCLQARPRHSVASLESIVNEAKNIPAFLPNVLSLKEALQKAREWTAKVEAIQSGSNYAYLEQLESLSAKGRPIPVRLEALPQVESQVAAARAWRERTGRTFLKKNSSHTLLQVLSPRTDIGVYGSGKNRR
UniProt Q9UGL1, 2-751: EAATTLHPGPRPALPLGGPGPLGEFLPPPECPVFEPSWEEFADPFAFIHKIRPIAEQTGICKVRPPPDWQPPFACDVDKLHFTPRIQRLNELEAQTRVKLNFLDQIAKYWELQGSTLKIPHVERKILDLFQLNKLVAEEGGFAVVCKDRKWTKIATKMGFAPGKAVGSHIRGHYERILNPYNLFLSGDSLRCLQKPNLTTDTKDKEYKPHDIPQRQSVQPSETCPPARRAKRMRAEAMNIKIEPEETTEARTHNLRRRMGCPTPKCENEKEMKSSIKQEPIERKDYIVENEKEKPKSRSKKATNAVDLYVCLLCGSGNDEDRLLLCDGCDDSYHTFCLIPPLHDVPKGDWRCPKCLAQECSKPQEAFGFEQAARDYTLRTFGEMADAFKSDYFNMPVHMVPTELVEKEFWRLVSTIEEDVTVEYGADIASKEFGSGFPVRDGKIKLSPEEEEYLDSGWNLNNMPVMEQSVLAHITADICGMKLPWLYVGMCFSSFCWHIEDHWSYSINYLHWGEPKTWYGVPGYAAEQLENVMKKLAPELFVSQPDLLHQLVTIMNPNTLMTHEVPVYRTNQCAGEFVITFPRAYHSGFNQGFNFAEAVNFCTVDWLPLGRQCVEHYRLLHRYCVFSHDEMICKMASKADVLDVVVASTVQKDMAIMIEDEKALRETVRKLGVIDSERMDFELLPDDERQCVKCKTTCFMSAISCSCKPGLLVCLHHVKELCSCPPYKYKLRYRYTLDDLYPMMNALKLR

| Structure (SMILES) | IC50 [1] [nM] | IC50 [2] [nM] | IC50 [3] [nM] |
| --- | --- | --- | --- |
| Cn1nc(Nc2cnccc2C(=O)O)c2ccc(F)cc21 [Example 6, 3-[(6-fluoro-1-methyl-1H-indazol-3-yl)amino]pyridine-4-carboxylic acid] | < 100 | < 100 | < 100 |
| Cc1ccc2c(c1)c(Nc1cnccc1C(=O)O)nn2C [Example 12, 3-[(1,5-dimethyl-1H-indazol-3-yl)amino]pyridine-4-carboxylic acid] | < 100 | < 100 | < 100 |
| O=C(O)c1ccncc1Nc1nn([C@H]2CCNC2)c2ccc(F)cc12 [Example 60, 3-({5-fluoro-1-[(3S)-pyrrolidin-3-yl]-1H-indazol-3-yl}amino)pyridine-4-carboxylic acid] | < 100 | < 100 | < 100 |
| O=C(O)c1ccncc1Nc1nn([C@@H]2CCNC2)c2ccc(F)cc12 [Example 61, 3-({5-fluoro-1-[(3R)-pyrrolidin-3-yl]-1H-indazol-3-yl}amino)pyridine-4-carboxylic] | < 100 | < 100 | < 100 |
| O=C(O)c1ccncc1Nc1nn(C2CCOC2)c2c1CCCC2 (centres unmarked) [Example 65, 3-{[1-(tetrahydrofuran-3-yl)-4,5,6,7-tetrahydro-1H-indazol-3-yl]amino}pyridine-4-carboxylic acid] |  | < 100 | < 100 |
